Source: US10159740B2, “Compositions with high content of sesamin class compounds” (SUNTORY HOLDINGS LIMITED, priority 2013, dated 2018)

Test: Crystal deposition of sesamin in oil or fat compositions after storage at 5° C. for a week
Format: physicochemical
Settings: conclusion from crystal deposition results

γ-orizanol
solubility of the sesamin-class compound in the fish oil and/or wheat germ oil: could increase the solubility
